These results are taken from patent publication US4511550A, “1-(p-Substituted or unsubstituted aminoalkyl)phenylpropane-1,2-dione bis(thiosemicarbazone) derivatives, and their production and use” (Nihon Medi-Physics Co., Ltd., priority 1982, dated 1985).

For series [1] the following is noted: background art; cited from earlier work.
A short description of series [2]: Variation of blood level in rats after intravenous administration. The settings on record: female SD rats, i.v. Type of series: in vivo, rats of SD strain.

On to “^99m Tc-labeled serum albumin: human serum albumin treated with ^99m Tc pertechnetate in the presence of a reducing agent”, for which the “Stability after administration into living bodies” value in series [1] is given as “low in the stability after administration into living bodies”. As for “Conventional ^99m Tc-labeled, human serum albumin (Commercial product B): Conventional ^99m Tc-labeled, human serum albumin (Commercial product B)”, the results for the “Blood level (% of dose/g; in average)” value in series [2] (0.5 hours) and in series [2] (3 hours) were 3.15 %/g and 1.88 %/g, respectively.
